# Results published in paper PMC4822888, “Subtype-Selective Small Molecule Inhibitors Reveal a Fundamental Role for Nav1.7 in Nociceptor Electrogenesis, Axonal Conduction and Presynaptic Release” (PLoS ONE, 2016).
# Test system: Nav1.7^Nav1.8Cre mice
# Details: mouse, in vivo
compound,measurement,value
"Nc1n[nH]cc1-c1cc(C(F)(F)F)ccc1Oc1cc(F)c(S(=O)(=O)Nc2cscn2)cc1Cl [PF-05198007, 4-(2-(3-amino-1H-pyrazol-4-yl)-4-(trifluoromethyl)phenoxy)-5-chloro-2-fluoro-N-(thiazol-4-yl)benzenesulfonamide]",Effect on capsaicin flare response,no effect
